OPERA 2.9 data: melting point values

Data: OPERA 2.9 data sets, kmansouri/OPERA on GitHub.

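OPERA's authors assembled the values from existing databases and did not measure them anew. One number stands for a compound and property, with no spread given. Conditions of the individual experiments are not part of the data. Where a salt, mixture or single isomer is drawn, the source does not say that exactly this form was tested. Unmarked limits or estimates from the upstream databases cannot be ruled out.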

The melting point is given in degrees Celsius. "via" names the databases from which the curators took the value.

- CCc1ccc(C(=O)O)s1: mp 61 °C (via OCHEM)
- NC(=O)NCc1ccco1: mp 121 °C (via OCHEM)
- CC(C)(C)c1ccc(-c2csc(N)n2)cc1: mp 128 °C (via OCHEM)
- COc1ccc(OCCC(=O)O)cc1: mp 105 °C (via OCHEM)
- O=C(O)CCCCCN1C(=O)CSC1=S: mp 86 °C (via OCHEM)
- O=c1cc(-c2ccccc2)c2ccccc2[nH]1: mp 264 °C (via OCHEM)
- Nc1ccccc1C(=O)N1CCCCC1: mp 81 °C (via OCHEM)
- COC1CC[C@]2(O1)[C@H]1C[C@H]1[C@H]1[C@@H]3C=CC4=CC(=O)CC[C@]4(C)[C@H]3CC[C@@]12C (some centres undefined): mp 145 °C (via eChemPortal)
- Cc1cccc(C(N)=O)n1: mp 118 °C (via OCHEM)
- Cc1ccc(-c2csc(CC#N)n2)cc1: mp 92 °C (via OCHEM)
- CC(C)c1cc(C(C)C)c([N+](=O)[O-])cc1[N+](=O)[O-]: mp 78 °C (via OCHEM)
- N#CC1(NC(=O)CCl)CCCCC1: mp 131 °C (via OCHEM)
- CC(=O)c1ccc(OCC(=O)N2CCCC2)cc1: mp 123 °C (via OCHEM)
- O=C(O)c1csc(Br)c1: mp 138 °C (via OCHEM)
- COc1ccccc1-c1noc(CCl)n1: mp 62 °C (via OCHEM)
- Nc1nnc(-c2cccc([N+](=O)[O-])c2)o1: mp 257 °C (via OCHEM)
- N[C@@H](CCO)C(=O)O: mp 203 °C (via PubChem)
- NS(=O)(=O)c1cc(C(=O)O)ccc1F: mp 237 °C (via OCHEM)
- CC(=O)OCCCCCCC(C)C: mp -26 °C (via eChemPortal)
- CS(=O)(=O)Nc1ccc2nn(C3CCCC3)nc2c1: mp 126 °C (via OCHEM)
- Cc1n[nH]c(=S)n1C1CCCCC1: mp 165 °C (via OCHEM)
- CCNC(=O)OC(C)(C)C: mp 39.5 °C (via OCHEM)
- O=C1CC2(CCCC2)C(=O)O1: mp 34 °C (via OCHEM)
- Nc1nc(-c2ccccn2)cs1: mp 136 °C (via OCHEM)
- CCCOc1ccc(Br)cc1C=O: mp 48 °C (via OCHEM)
- CC(=O)c1c(C)nc2sccn12: mp 133 °C (via OCHEM)
- C=C1CC[C@H](O)C/C1=C/C=C1\CCC[C@]2(C)[C@@H]([C@H](C)CC[C@H](C)C(C)C)CC[C@@H]12: mp 97 °C (via OCHEM)
- O=C(O)C1(c2cccc(Cl)c2)CC1: mp 136 °C (via OCHEM)
- S=c1nc[nH]c2ccccc12: mp 294 °C (via OCHEM)
- CC[N+]1(C)CCCC1.[Br-]: mp 298.9 °C (via eChemPortal)
- N#CCC(=O)NCc1ccco1: mp 94 °C (via OCHEM)
- CCNC(=O)CN1CCNCC1: mp 84 °C (via OCHEM)
- Nc1nc(Cc2ccccc2)cs1: mp 90 °C (via OCHEM)
- CN(C)c1ccc(C(=O)O)cn1: mp 226 °C (via OCHEM)
- C=CCNc1nc2c(s1)CCCC2: mp 78 °C (via OCHEM)
- Nc1nc(NC2CC2)c2ncn([C@H]3C=C[C@@H](CO)C3)c2n1.O=C(O)CCCC(=O)O: mp 201.8 °C (via eChemPortal)
- CC(C)(C)C(=O)NCC(=O)O: mp 133 °C (via OCHEM)
- CN(C)Cc1ccc(C(=O)O)cc1: mp 240 °C (via OCHEM)
- O=C(O)C(=Cc1cccs1)n1nnnc1-c1ccccc1: mp 205 °C (via OCHEM)